One experiment concerns the target T1, Mouse EP4 (Mus musculus, UniProt P32240).
T1 construct: expressed in transfected cells; host or cells: COS-7
Put plainly: Receptor affinity, tritium-labeled PGE2 binding to membranes of transfected COS-7 cells. Here is the method: (§1) PG receptor affinity of compound F and compound J of the present invention was evaluated. Compound F used was one synthesized in Example 9, and compound J was prepared by separating and purifying the compound synthesized in Example 14 with a column (the same preparations were used in the following Examples). COS-7 cells were transfected with the genes of mouse EP4, human EP1-4 or human IP to overexpress the receptor and then the cell membranes were collected. As a labeled ligand, tritium-labeled PGE2 was used for EPs; tritium-labeled iloprost, for IP. The dissociation constant Kd value was obtained and inhibition constant Ki value of each test compound was determined in a conventional method. As a reference control, PGE2 was used for EPs; beraprost sodium (BPS), for IP.

The chains behind the UniProt entries cited, without tags or fusion partners. Where a name states a change or a piece, a line headed by the entry shows the natural chain unless it says otherwise.
UniProt P32240: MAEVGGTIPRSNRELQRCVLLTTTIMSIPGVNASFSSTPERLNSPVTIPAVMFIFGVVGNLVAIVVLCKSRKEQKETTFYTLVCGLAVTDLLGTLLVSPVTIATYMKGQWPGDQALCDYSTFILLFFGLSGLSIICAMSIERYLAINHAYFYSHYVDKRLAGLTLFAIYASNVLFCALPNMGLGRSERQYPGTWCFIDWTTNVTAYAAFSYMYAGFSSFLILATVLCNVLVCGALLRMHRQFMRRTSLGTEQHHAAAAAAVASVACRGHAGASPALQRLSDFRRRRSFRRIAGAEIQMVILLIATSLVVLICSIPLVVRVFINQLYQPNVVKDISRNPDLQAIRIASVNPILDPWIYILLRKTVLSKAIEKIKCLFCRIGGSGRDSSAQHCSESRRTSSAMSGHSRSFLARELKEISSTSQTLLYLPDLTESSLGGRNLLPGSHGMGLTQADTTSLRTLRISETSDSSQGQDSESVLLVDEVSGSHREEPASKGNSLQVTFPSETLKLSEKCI
UniProt P43116: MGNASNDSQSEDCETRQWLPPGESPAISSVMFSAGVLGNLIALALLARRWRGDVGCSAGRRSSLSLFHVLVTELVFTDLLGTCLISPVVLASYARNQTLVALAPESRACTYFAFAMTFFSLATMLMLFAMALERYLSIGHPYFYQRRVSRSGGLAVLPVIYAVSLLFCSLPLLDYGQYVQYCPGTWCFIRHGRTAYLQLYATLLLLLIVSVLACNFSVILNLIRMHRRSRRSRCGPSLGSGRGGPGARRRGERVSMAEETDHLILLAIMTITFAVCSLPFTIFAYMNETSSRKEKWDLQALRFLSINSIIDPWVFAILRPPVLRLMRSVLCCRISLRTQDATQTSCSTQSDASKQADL

A further experiment has as its target T2, Human EP2 (Homo sapiens, UniProt P43116).
T2 construct: expressed in transfected cells; host or cells: COS-7
The description is as above. The procedure:
as §1

On to `CCCCC[C@H](O)/C=C/[C@H]1[C@H](O)CC(=O)[C@@H]1C/C=C\CCCC(=O)O` [PGE2, reference compound], for which the Ki came to 2.6 nM on Mouse EP4 and 6 nM on Human EP2.

(Values after patent EP2545917B1, “NOVEL EP4 AGONIST” (Kaken Pharmaceutical Co., Ltd., priority 2010, dated 2011).)
